Source: paper PMC6465285, “Arsinothricin, an arsenic-containing non-proteinogenic amino acid analog of glutamate, is a broad-spectrum antibiotic” (Communications Biology, 2019)

By UniProt entry, the sequences of proteins in these tests, tags left out. Residues count along the entry.
UniProt P0A9C5, 2-469: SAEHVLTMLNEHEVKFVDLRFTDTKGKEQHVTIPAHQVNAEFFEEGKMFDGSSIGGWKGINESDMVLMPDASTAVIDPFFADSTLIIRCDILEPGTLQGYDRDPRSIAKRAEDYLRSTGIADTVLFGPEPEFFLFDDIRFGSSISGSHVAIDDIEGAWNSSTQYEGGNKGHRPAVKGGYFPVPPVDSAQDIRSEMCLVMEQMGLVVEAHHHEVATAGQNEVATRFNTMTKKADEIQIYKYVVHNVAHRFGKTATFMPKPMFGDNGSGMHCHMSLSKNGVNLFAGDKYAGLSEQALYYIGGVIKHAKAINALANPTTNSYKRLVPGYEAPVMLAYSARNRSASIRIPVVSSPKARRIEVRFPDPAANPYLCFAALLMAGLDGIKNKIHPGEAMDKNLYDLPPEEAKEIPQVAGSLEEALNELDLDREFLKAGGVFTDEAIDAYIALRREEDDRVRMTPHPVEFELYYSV

Biological target: T1, glutamine synthetase (Escherichia coli, UniProt P0A9C5)
T1 construct: gene glnA
Test: coupled ADP/NADH oxidation assay with purified enzyme
Type: biochemical

SMILES: C[As](=O)(O)CC[C@H](N)C(=O)O [AST, 2-amino-4-(hydroxymethylarsinoyl)butanoate]
- Ki: 300 ± 50 nM
